From patent US5753516A, “Screening method for ligands of the EBI-1 receptor” (priority 1995, dated 1998)

By UniProt entry, the sequences of proteins in these tests, tags left out. Residues count along the entry.
UniProt P32248, 25-378 limits assumed: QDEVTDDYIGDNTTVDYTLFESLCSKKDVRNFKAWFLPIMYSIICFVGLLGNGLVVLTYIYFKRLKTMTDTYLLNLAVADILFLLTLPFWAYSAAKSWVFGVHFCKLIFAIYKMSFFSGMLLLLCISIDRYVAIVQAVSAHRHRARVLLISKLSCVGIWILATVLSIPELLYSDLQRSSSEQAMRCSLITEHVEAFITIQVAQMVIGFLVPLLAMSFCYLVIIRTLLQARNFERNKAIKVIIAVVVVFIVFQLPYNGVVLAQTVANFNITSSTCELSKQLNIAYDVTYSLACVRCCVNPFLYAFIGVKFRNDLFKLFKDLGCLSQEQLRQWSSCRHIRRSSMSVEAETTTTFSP

Tests used:
[1] = tested on: murine splenocytes; conditions: Taub et al.; cited from earlier work
[2] = tested on: NALM 6 cells; test: Binding of ^3 H-labeled δ- and κ-agonists to NALM 6 cells; parameters: species or system human; conditions: NALM 6, at concentrations s 5 nM
[3] = tested on: Jurkat cells; test: Binding of ^3 H-labeled δ- and κ-agonists to Jurkat cells; conditions: dose 50 nM
[4] = tested on: NALM 6 cells; conditions: Heagy et al., 1992; cited from earlier work
[5] = target: EBI 1 (Homo sapiens, UniProt P32248); test: cAMP accumulation in COS cells transfected with EBI 1; conditions: COS cells expressing lymphocyte receptor

| SMILES | humoral / antibody response [1] | specific binding, % of total [2] | specific binding, % of total [3] | [Ca^2+ ]i response [4] | effect on intracellular cAMP, EBI1 transfectants [5] |
| --- | --- | --- | --- | --- | --- |
| CN(C(=O)Cc1ccccc1)C1CCC2(CCCO2)CC1N1CCCC1 (centres unmarked) | inhibition of antibody responses | 50-80% | 50-60% | stimulates a rapid increase in [Ca^2+ ]i |  |
| CN(C(=O)Cc1ccc(Cl)c(Cl)c1)C1CCCCC1N1CCCC1 (centres unmarked) |  |  |  |  | but not DAMGO (μ-agonist) or U50,488 (κ-agonist) elicited an elevation in intracellular cAMP content |
